System: Dopamine Receptor
Test: Inhibition of apomorphine induced climbing in the mouse (central dopamine receptor blocking activity)
Type: in vivo
Conditions: apomorphine 1mg/kg s.c.

Q: How did the “CNS (Climbing) ED50” value turn out when “5-hlethanesu-lphonylamido-2-rnethoxy-3-methyl-N-[3a-[8-benzyl-8-azabicyclo(3.2.1)octyl}]benzamide [Compound 10]” was run?
A: ED50 9.3 mg/kg s.c.

Source: patent EP0101641A2, “Sulfonylamino-aza-bicyclo-alkyl derivatives” (BEECHAM GROUP PLC, priority 1982, dated 1984)
